# Ab-14 heavy chain CDR variants: yeast mating affinities

Reference: Engelhart et al. 2022, doi:10.1038/s41597-022-01779-4. File: FLAb, binding data.

Target peptide (SARS-CoV-2 spike, HR2 region): PDVDLGDISGINAS

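The starting antibody came from a phage panning campaign against this peptide. The library (AAYL49) carries one to three amino acid substitutions per variant, with no insertions or deletions. Affinity was read by AlphaSeq, a pooled yeast mating assay with surface-displayed partners. The frequency of each diploid, read from paired DNA barcodes, reflects how well the two displayed proteins bind. Read counts were normalised to the haploid input and turned into Kd by a linear fit to BCL2-family pairs of known affinity, for each replicate. The assay was run in three technical replicates.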

Parent: Ab-14, a human scFv built as VH, a (GGGGS)3 linker, VL. Only the CDRs of the heavy chain vary.
VH: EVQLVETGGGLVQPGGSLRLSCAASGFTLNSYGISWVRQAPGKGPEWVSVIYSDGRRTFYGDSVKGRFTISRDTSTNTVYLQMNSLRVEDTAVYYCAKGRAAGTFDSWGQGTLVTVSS
VL: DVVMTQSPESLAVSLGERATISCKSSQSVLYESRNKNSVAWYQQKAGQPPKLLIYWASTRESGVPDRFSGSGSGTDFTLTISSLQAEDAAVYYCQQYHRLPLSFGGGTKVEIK

The whole VH of each variant is written out. Scale: log10 of Kd in nM, estimated from mating counts; low values are strong binders. "nd" means that the variant was in the library but no mating with the target was seen in that replicate; the authors take this as a sign of poor binding, and no number exists. Nonspecific signal, from three strains lacking the peptide, appeared in 15% of pairings of library AAYL49, centred on 4.06 (5% of these signals below 2.83); values are not corrected for it. Also given: how often the same scFv was detected with the empty control strains, with their mean in brackets.

VH,log10 Kd (nM) by replicate,empty controls
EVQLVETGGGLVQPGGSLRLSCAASGFTLNSYGISWVRQAPGKGPEWVSVIYSDGRRKFYQDSVKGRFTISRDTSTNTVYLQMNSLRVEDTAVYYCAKGRAAGTFDSWGQGTLVTVSS,1.17 1.24 1.39,1 of 9 (4.08)
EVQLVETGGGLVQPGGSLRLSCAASGFTLNSYGISWVRQAPGKGPEWVSVIYSDGRRTFYGDSVKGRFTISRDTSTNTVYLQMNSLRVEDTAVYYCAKPRAAGRFDGWGQGTLVTVSS,nd nd 3.46,0 of 9
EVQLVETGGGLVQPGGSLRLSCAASGFTLNSYGISWVRQAPGKGPEWVSVPYSDGRFTFYGDSVKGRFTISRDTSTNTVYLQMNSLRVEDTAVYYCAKGRAAGTPDSWGQGTLVTVSS,nd 4.69 nd,3 of 9 (4.64)
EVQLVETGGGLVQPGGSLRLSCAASGFTLNSYGISWVRQAPGKGPEWVSVFYSDGRRTFYGDSFKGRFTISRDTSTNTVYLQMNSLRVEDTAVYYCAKGRAAGTFDSWGQGTLVTVSS,nd nd nd,0 of 9
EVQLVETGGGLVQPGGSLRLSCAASGFTLNSYGISWVRQAPGKGPEWVSVIYSDGRRTFYGDLVKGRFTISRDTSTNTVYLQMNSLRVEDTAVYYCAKGRAARTFHSWGQGTLVTVSS,2.89 2.25 2.85,1 of 9 (3.27)
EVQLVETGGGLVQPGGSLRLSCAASGFTLPSYGISWVRQAPGKGPEWVSVIYSDGRRTFYGDIKKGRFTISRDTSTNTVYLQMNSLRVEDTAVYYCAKGRAAGTFDSWGQGTLVTVSS,nd 4.09 nd,2 of 9 (3.56)
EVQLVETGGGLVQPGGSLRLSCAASGFTYNSYGISWVRQAPGKGPEWVSVIYSDGRRTFYGDSWGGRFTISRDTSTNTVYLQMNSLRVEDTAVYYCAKGRAAGTFDSWGQGTLVTVSS,nd nd nd,0 of 9
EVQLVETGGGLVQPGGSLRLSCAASGFTLNSYGISWVRQAPGKGPEWVSVIYSDGRMWFYGDSVKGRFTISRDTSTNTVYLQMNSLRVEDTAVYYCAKGRAAGTFDSWGQGTLVTVSS,nd nd nd,4 of 9 (4.49)
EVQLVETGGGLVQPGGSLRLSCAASGFTLNSYGISWVRQAPGKGPEWVSVIYSDGRQTFYGDSVKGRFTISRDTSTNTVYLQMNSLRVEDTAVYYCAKGRAEGTFDSWGQGTLVTVSS,3.42 nd nd,2 of 9 (3.97)
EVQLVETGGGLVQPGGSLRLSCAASGFTLNSYGISWVRQAPGKGPEWVSVIDSDGRRVNYGDSVKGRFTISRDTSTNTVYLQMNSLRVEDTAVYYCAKGRAAGTFDSWGQGTLVTVSS,nd nd nd,1 of 9 (3.36)
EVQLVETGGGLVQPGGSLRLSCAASGFTVNDYGISWVRQAPGKGPEWVSVIYSDGRRTHYGDSVKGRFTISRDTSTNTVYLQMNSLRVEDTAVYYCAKGRAAGTFDSWGQGTLVTVSS,nd 5.34 nd,3 of 9 (4.66)
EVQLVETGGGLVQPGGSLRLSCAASGFTLNSYGISWVRQAPGKGPEWVSVIYSDGRRTFYGDSVMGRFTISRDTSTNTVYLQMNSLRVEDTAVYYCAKGRALGQFDSWGQGTLVTVSS,3.59 4.54 4.42,5 of 9 (4.47)
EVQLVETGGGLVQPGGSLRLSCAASGFTLNSYGISWVRQAPGKGPEWVSVIYSDGRRSFYGKSVKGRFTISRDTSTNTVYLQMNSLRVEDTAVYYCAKGRAFGTFDSWGQGTLVTVSS,nd nd nd,0 of 9
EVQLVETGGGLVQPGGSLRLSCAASGFTLNSYHISWVRQAPGKGPEWVSVIYSDGRRTFYGDSVKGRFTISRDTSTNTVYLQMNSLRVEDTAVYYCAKGRAAGTFDSWGQGTLVTVSS,nd nd nd,0 of 9
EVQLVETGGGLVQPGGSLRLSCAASEFTLNSYGISWVRQAPGKGPEWVSVIYVDGRRTFYGGSVKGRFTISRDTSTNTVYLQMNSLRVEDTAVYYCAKGRAAGTFDSWGQGTLVTVSS,2.44 3.14 2.99,3 of 9 (4.47)
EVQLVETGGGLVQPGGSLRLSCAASGFTLNSNGISWVRQAPGKGPEWVSCIYSDWRRTFYGDSVKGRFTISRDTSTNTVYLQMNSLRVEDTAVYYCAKGRAAGTFDSWGQGTLVTVSS,nd nd nd,2 of 9 (3.66)
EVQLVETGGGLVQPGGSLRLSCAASGFTLNSYGISWVRQAPGKGPEWVSVIISDGRRTFYGDSVKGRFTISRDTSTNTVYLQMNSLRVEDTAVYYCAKGRAAGTFDSWGQGTLVTVSS,nd nd nd,2 of 9 (3.30)
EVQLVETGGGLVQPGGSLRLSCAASGFTNNSYGWSWVRQAPGKGPEWVSVIYWDGRRTFYGDSVKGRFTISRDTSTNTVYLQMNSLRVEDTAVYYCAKGRAAGTFDSWGQGTLVTVSS,nd 3.48 nd,0 of 9
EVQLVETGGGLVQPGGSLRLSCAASGFTLHSYGISWVRQAPGKGPEWVSVIYSDGRMTIYGDSVKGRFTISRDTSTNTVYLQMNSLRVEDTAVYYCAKGRAAGTFDSWGQGTLVTVSS,nd 3.95 nd,1 of 9 (5.17)
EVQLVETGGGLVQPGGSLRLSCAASGFTLNSYGISWVRQAPGKGPEWVSVIYSDGRRPFYNDSVKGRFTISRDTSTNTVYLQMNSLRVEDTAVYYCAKGYAAGTFDSWGQGTLVTVSS,nd 3.13 nd,0 of 9

Top 2 of the variants detected in all replicates, tightest first:

| VH | log10 Kd (nM) by replicate | empty controls |
|---|---|---|
| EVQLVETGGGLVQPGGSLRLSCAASGFTLNSYGISWVRQAPGKGPEWVSVIYSDGRRKFYQDSVKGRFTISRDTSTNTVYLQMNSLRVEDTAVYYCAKGRAAGTFDSWGQGTLVTVSS | 1.17 1.24 1.39 | 1 of 9 (4.08) |
| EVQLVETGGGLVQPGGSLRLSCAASGFTLNSYGISWVRQAPGKGPEWVSVIYSDGRRTFYGDLVKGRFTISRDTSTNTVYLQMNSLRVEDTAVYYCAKGRAARTFHSWGQGTLVTVSS | 2.89 2.25 2.85 | 1 of 9 (3.27) |

In this assay the parent's reference entry averaged 0.65; its copy inside this library read 4.11 (one replicate of three).